This data set in a line: LogP of the perfume ingredients.

SMILES strings stand for the structures.

These results are taken from US8426353B2, “Process for preparing polyurea microcapsules” (Firmenich SA, priority 2008, dated 2013).

For `CC(=O)/C=C/C1=C(C)CCCC1(C)C` [β-Ionone], the LogP runs as follows: (ingredients of the perfume of Example 6 (Table 1)) 4.42; (ingredients of the perfume of Example 9 (Table 9)) 4.42.

The term LogP denotes the decadic logarithm of the partition coefficient of the neutral form, usually between octanol and water. Read a low LogP as lower lipophilicity.
